Literature values, collected in patent US12649776B2, “Scaffold proteins and therapeutic nanoconjugates based on nidogen” (UNIVERSITAT AUTÒNOMA DE BARCELONA, priority 2019, dated 2026).

Details: literature value; cited from earlier work

Substance: HSA: human serum albumin, literature comparator (Picó)
- Tm: 63 °C
